Reference: PMC4596520

The chains behind the UniProt entries cited, without tags or fusion partners. Residues count along the entry.
UniProt P12318, 34-217 H167R: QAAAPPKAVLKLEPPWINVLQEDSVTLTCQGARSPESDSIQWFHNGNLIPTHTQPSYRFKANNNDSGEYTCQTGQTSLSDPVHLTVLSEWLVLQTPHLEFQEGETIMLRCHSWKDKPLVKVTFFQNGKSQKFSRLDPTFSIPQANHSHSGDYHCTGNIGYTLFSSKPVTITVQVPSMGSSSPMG
UniProt P12314, 16-292: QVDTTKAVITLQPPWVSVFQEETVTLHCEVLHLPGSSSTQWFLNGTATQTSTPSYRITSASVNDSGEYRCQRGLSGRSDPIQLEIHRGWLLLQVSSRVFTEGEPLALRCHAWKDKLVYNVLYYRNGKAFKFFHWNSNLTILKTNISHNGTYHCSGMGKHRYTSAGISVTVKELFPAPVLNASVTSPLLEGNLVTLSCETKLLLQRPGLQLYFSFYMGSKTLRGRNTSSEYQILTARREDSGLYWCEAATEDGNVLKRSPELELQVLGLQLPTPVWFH

Tests used:
Test in all cases: SPR
[1] = biological target: hexa-His-tagged recombinant soluble human Fcγ receptor IIIa, 158V
[2] = biological target: hexa-His-tagged recombinant soluble human Fcγ receptor IIIb; conditions: read off a plot
[3] = biological target: hexa-His-tagged recombinant soluble human Fcγ receptor IIIa, 158F (UniProt P08637); conditions: read off a plot
[4] = biological target: hexa-His-tagged recombinant soluble human Fcγ receptor IIa, 134R (UniProt P12318); conditions: parent: est. 12; read off a plot
[5] = biological target: hexa-His-tagged recombinant soluble human Fcγ receptor I (UniProt P12314); conditions: parent: est. 2.3; read off a plot
[6] = parent: est. 8.0, read off a plot
[7] = parent: est. 26, read off a plot

| Kd [1, 6] | Kd ([2]; parent: est. 2.5) | Kd [1, 7] | Kd ([2]; parent: est. 19) | Substance | other results |
| --- | --- | --- | --- | --- | --- |
| 15 ×10^-8 M | 14 ×10^-7 M | – | – | nonfucosylated anti-CD20 chimeric IgG1 rituximab with a wild-type Fc region Y296C | – |
| – | – | 42 ×10^-8 M | 20 ×10^-7 M | fucosylated anti-CD20 chimeric IgG1 rituximab with a wild-type Fc region Y296M | Kd ([3]; parent: est. 17): 28 ×10^-7 M |
| – | – | 36 ×10^-8 M | 26 ×10^-7 M | fucosylated anti-CD20 chimeric IgG1 rituximab with a wild-type Fc region Y296H | Kd ([3]; parent: est. 17): 22 ×10^-7 M |
| – | – | 68 ×10^-8 M | 23 ×10^-7 M | fucosylated anti-CD20 chimeric IgG1 rituximab with a wild-type Fc region Y296R | – |
| 10 ×10^-8 M | 12 ×10^-7 M | – | – | nonfucosylated anti-CD20 chimeric IgG1 rituximab with a wild-type Fc region Y296D | – |
| – | – | – | – | fucosylated anti-CD20 chimeric IgG1 rituximab with a wild-type Fc region Y296P | Kd ([1]; parent: est. 26): > 100 ×10^-8 M |
| 18 ×10^-8 M | 14 ×10^-7 M | – | – | nonfucosylated anti-CD20 chimeric IgG1 rituximab with a wild-type Fc region Y296L | – |
| 13 ×10^-8 M | 17 ×10^-7 M | – | – | nonfucosylated anti-CD20 chimeric IgG1 rituximab with a wild-type Fc region Y296E | Kd [4]: 12 ×10^-7 M |
| 25 ×10^-8 M | 16 ×10^-7 M | – | – | nonfucosylated anti-CD20 chimeric IgG1 rituximab with a wild-type Fc region Y296R | Kd ([3]; parent: est. 5.0): 17 ×10^-7 M |
| – | – | 50 ×10^-8 M | 20 ×10^-7 M | fucosylated anti-CD20 chimeric IgG1 rituximab with a wild-type Fc region Y296S | – |
| – | – | 42 ×10^-8 M | 24 ×10^-7 M | fucosylated anti-CD20 chimeric IgG1 rituximab with a wild-type Fc region Y296L | Kd ([3]; parent: est. 17): 28 ×10^-7 M |
| – | – | 45 ×10^-8 M | 20 ×10^-7 M | fucosylated anti-CD20 chimeric IgG1 rituximab with a wild-type Fc region Y296Q | – |
| – | – | 53 ×10^-8 M | 19 ×10^-7 M | fucosylated anti-CD20 chimeric IgG1 rituximab with a wild-type Fc region Y296T | – |
| 10 ×10^-8 M | 5 ×10^-7 M | – | – | nonfucosylated anti-CD20 chimeric IgG1 rituximab with a wild-type Fc region Y296H | – |
| 16 ×10^-8 M | 14 ×10^-7 M | – | – | nonfucosylated anti-CD20 chimeric IgG1 rituximab with a wild-type Fc region Y296M | – |
| 62 ×10^-8 M | – | – | – | nonfucosylated anti-CD20 chimeric IgG1 rituximab with a wild-type Fc region Y296P | – |

| Kd [1, 6] | Kd ([2]; parent: est. 2.5) | Kd [1, 7] | Kd ([2]; parent: est. 19) | Substance | other results |
| --- | --- | --- | --- | --- | --- |
| 17 ×10^-8 M | 15 ×10^-7 M | – | – | nonfucosylated anti-CD20 chimeric IgG1 rituximab with a wild-type Fc region Y296I | – |
| – | – | 36 ×10^-8 M | 22 ×10^-7 M | fucosylated anti-CD20 chimeric IgG1 rituximab with a wild-type Fc region Y296N | Kd ([3]; parent: est. 17): 23 ×10^-7 M |
| – | – | 26 ×10^-8 M | 28 ×10^-7 M | fucosylated anti-CD20 chimeric IgG1 rituximab with a wild-type Fc region Y296D | – |
| 15 ×10^-8 M | 14 ×10^-7 M | – | – | nonfucosylated anti-CD20 chimeric IgG1 rituximab with a wild-type Fc region Y296N | – |
| – | – | 42 ×10^-8 M | 20 ×10^-7 M | fucosylated anti-CD20 chimeric IgG1 rituximab with a wild-type Fc region Y296I | Kd ([3]; parent: est. 17): 26 ×10^-7 M |
| – | – | 31 ×10^-8 M | 30 ×10^-7 M | fucosylated anti-CD20 chimeric IgG1 rituximab with a wild-type Fc region Y296E | – |
| 19 ×10^-8 M | 13 ×10^-7 M | – | – | nonfucosylated anti-CD20 chimeric IgG1 rituximab with a wild-type Fc region Y296S | – |
| – | – | 43 ×10^-8 M | 28 ×10^-7 M | fucosylated anti-CD20 chimeric IgG1 rituximab with a wild-type Fc region Y296V | Kd ([3]; parent: est. 17): 29 ×10^-7 M |
| 17 ×10^-8 M | 15 ×10^-7 M | – | – | nonfucosylated anti-CD20 chimeric IgG1 rituximab with a wild-type Fc region Y296T | – |
| – | – | 70 ×10^-8 M | 29 ×10^-7 M | fucosylated anti-CD20 chimeric IgG1 rituximab with a wild-type Fc region Y296G | – |
| 29 ×10^-8 M | 14 ×10^-7 M | – | – | nonfucosylated anti-CD20 chimeric IgG1 rituximab with a wild-type Fc region Y296G | Kd [4]: 12 ×10^-7 M; Kd ([3]; parent: est. 5.0): 15 ×10^-7 M; Kd [5]: 2.9 ×10^-8 M |
| 20 ×10^-8 M | 16 ×10^-7 M | – | – | nonfucosylated anti-CD20 chimeric IgG1 rituximab with a wild-type Fc region Y296Q | – |
| 10 ×10^-8 M | 3.5 ×10^-7 M | – | – | nonfucosylated anti-CD20 chimeric IgG1 rituximab with a wild-type Fc region Y296F | – |
| – | – | 30 ×10^-8 M | 20 ×10^-7 M | fucosylated anti-CD20 chimeric IgG1 rituximab with a wild-type Fc region Y296F | – |
| 15 ×10^-8 M | 14 ×10^-7 M | – | – | nonfucosylated anti-CD20 chimeric IgG1 rituximab with a wild-type Fc region Y296V | – |
| – | – | 33 ×10^-8 M | 19 ×10^-7 M | fucosylated anti-CD20 chimeric IgG1 rituximab with a wild-type Fc region Y296C | – |
